From article PMC3198786, “LL37 and Cationic Peptides Enhance TLR3 Signaling by Viral Double-stranded RNAs” (PLoS ONE, 2011)

Test system: BEAS2B cells
Experiment: WST-1 viability of BEAS2B cells
Type: cell-based, human
Conditions: KR18-37 4 µM, mCRAMP 5 µM, data not shown
Experimental: Supplementary file pone.0026632.s002.tif: Figure S2 Effects of LL37 concentration on viability of BEAS2B cells±poly(I:C). Cell viability was assessed using the WST-1 assay (Clontech, Mountain View CA). After treatments, cells were incubated with WST-1 substrate for 4 h and absorbance was measured at 450 nm with 630 nm as reference. The readout performed in the absence of LL37 (i.e. Control) is defined as 100%. […] The graph is representative of five experiments. […] (TIF) Click here for additional data file.

mCRAMP
Cytotoxicity in BEAS2B cells: no cytotoxicity was detected
